Our source for the EC50 values is publication PMC12518634, “The noncanonical function of liver-type phosphofructokinase potentiates the efficacy of HDAC inhibitors in cancer” (Signal Transduction and Targeted Therapy, 2025).

By EC50 is commonly meant the concentration needed to bring the measured effect to its halfway point. Higher therefore signals a need for much substance.

Structures are written as SMILES.

For the assay, the system named is 1405R3. In words: High-throughput drug screen, CellTiter-Glo viability, 72 h. Format: cell-based, human. (In general: In ATP-based viability assays light output follows the ATP content of the culture.)

On to `CCNC(=O)C[C@@H]1N=C(c2ccc(Cl)cc2)c2cc(OC)ccc2-n2c(C)nnc21` [I-BET-762], for which the concentration for a half-maximal effect (EC50) came out at 1290 nM.
